Ab-14 heavy chain CDR variants: yeast mating affinities

All variants were tested on one target, the spike HR2 peptide PDVDLGDISGINAS (SARS-CoV-2).

The variants keep the light chain, the linker and the frameworks of Ab-14 (scFv order VH, the linker GGGGSGGGGSGGGGS, VL).
VH: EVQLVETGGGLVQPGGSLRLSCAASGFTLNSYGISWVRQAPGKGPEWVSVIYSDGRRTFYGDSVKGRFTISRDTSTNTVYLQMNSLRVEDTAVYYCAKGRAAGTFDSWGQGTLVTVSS
VL: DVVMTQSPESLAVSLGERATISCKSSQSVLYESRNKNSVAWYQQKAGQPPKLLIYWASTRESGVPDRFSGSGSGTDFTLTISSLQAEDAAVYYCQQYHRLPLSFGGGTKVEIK

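The parent was found by panning a naive human phage display library on the peptide. AAYL49 was designed without a model: most single CDR substitutions and a random sample of double and triple ones. The scFvs were displayed on barcoded MATa yeast, the peptide on MATalpha yeast. The frequency of each diploid, read from paired DNA barcodes, reflects how well the two displayed proteins bind. Each replicate has its own calibration line, from reference interactions of the BCL2 family. The assay was run in three technical replicates.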

Variants are written as CDR1, CDR2 and CDR3 of the heavy chain (limits as in the source). Parent: GFTLNSYGIS, VIYSDGRRTFYGDSVK, GRAAGTFDS. This list gathers variants with a substitution at V64 (VH, numbered from residue 1). Values are apparent Kd, the geometric mean of the replicates that gave a signal; lower means stronger binding. "no signal" marks a missing value. The strain was present, yet no cells mated with the target were sequenced in any replicate, which points to weak or no binding.

- GFCLNSYPIS | VIYSDGRRTFYGDSLK | GRAAGTFDS -> 74 µM (2 of 3 replicates; controls 3 of 9)
- GFTLNSYGIS | VIYSDGRRCFYGDSFK | GRMAGTFDS -> 39 nM (3 of 3 replicates; controls 0 of 9)
- GFTLNSYGES | VQYSDGRRTFYGDSAK | GRAAGTFDS -> 5.5 µM (1 of 3 replicates; controls 1 of 9)
- GFTLNSYGIS | VIYSDGRRTFYGDSWK | YRMAGTFDS -> no signal (0 of 3 replicates; controls 0 of 9)
- GFTLNSYGIS | VIYSDGDRWFYGDSIK | GRAAGTFDS -> 2.1 µM (1 of 3 replicates; controls 1 of 9)
- GFTLNSSGIS | VIYSDGRRTFYGDSLK | GRAAGTFDS -> 530 µM (1 of 3 replicates; controls 1 of 9)
- GFTLNSYGIS | VIYSDGRRTFYGKSNK | GRAAGTADS -> 9.5 µM (1 of 3 replicates; controls 0 of 9)
- GFTLNSYGTS | VIYSDGRRTFYGDSWK | GRKAGTFDS -> no signal (0 of 3 replicates; controls 1 of 9)
- GFTLNSYGIS | VIYSDGRRTKYGDCDK | GRAAGTFDS -> no signal (0 of 3 replicates; controls 1 of 9)
- GFTLNSYGIS | VIYSDGRRTFYGDSLK | GCAAGTFDS -> no signal (0 of 3 replicates; controls 0 of 9)
- GFTLNSYGIS | VIYSDGNRTFYGDSGK | GSAAGTFDS -> no signal (0 of 3 replicates; controls 0 of 9)
- GWTLGSYGIS | VIYSDGRRTFYGDSEK | GRAAGTFDS -> no signal (0 of 3 replicates; controls 1 of 9)
- GLTLNSYGIS | VIYSDGRRTIYGDSKK | GRAAGTFDS -> no signal (0 of 3 replicates; controls 0 of 9)
- EFTLNSYGIS | VIYSDGRYTFYGDSPK | GRAAGTFDS -> 160 µM (1 of 3 replicates; controls 4 of 9)
- GFTLNSYGIS | VIYSDGRRTFYGRSNK | GRAASTFDS -> no signal (0 of 3 replicates; controls 0 of 9)
- GFTLNSYGYS | VIYSDGRRTFYGDSNK | GRAAGTFDS -> 14 µM (1 of 3 replicates; controls 5 of 9)
- GFTLNSYGIS | VIYSDGRRRFYGDSFK | GRAAGTFDS -> 47 nM (3 of 3 replicates; controls 0 of 9)
- GLTLNSYGIS | VIYSDGRRTFYGDSMK | NRAAGTFDS -> no signal (0 of 3 replicates; controls 2 of 9)
- GFTLCSYGIS | VIYSDGRRTFYGPSWK | GRAAGTFDS -> no signal (0 of 3 replicates; controls 0 of 9)
- GFTLNSYGIS | VIYSDGRRAFYGDSHK | GRAAGTFDL -> 120 µM (2 of 3 replicates; controls 2 of 9)
- GFTLNSYAIS | VIYSDGRRTFYGDSRK | GRAAGHFDS -> no signal (0 of 3 replicates; controls 0 of 9)
- GFTLNSYGIS | VIFSDERRTFYGDSKK | GRAAGTFDS -> no signal (0 of 3 replicates; controls 0 of 9)
- GETLNSYGIS | VIYSDGRRTFYGDSLK | GRAAGTFDE -> no signal (0 of 3 replicates; controls 1 of 9)
- GFALNSYGIS | VIYSDGHRTFYGDSYK | GRAAGTFDS -> 88 nM (3 of 3 replicates; controls 1 of 9)
- GFTLNSYGIS | VIYKDGRRTFYNDSHK | GRAAGTFDS -> no signal (0 of 3 replicates; controls 0 of 9)
- GFTLNSYGIS | VIYSDGRRTFYDDSQK | GRAAGQFDS -> no signal (0 of 3 replicates; controls 0 of 9)
- GFTLNSYGIS | VGYSDGRRTFYGDSTK | WRAAGTFDS -> no signal (0 of 3 replicates; controls 0 of 9)
- GFTLNSYGIS | VIYSPGRRTFYGDSWK | GRAAGTGDS -> 190 µM (2 of 3 replicates; controls 5 of 9)
- GFTLNSYGIS | VIYSDGRRTFYGDSNV | GRAAGTRDS -> no signal (0 of 3 replicates; controls 0 of 9)
- GFTLNWYGIS | VIYSDGRRTFYGDSKK | GRAARTFDS -> 30 µM (1 of 3 replicates; controls 2 of 9)
- GFTANSYGIS | VIYSDGRRTFYGDKFK | GRAAGTFDS -> 480 nM (3 of 3 replicates; controls 3 of 9)
- GFTLNSYGIS | VIYSDGRRTYYWDSRK | GRAAGTFDS -> 48 µM (1 of 3 replicates; controls 0 of 9)
- GFTLRSYGIS | VAYSDGRRTFYGDSDK | GRAAGTFDS -> 430 µM (3 of 3 replicates; controls 1 of 9)
- GFTLNSYGIS | VIYSDGRRTFYGDSTK | GRAAGQQDS -> no signal (0 of 3 replicates; controls 2 of 9)
- GFTLNSYGIS | VIYSDGRRTFYGDSIK | GRAVGTFDS -> no signal (0 of 3 replicates; controls 0 of 9)

Repeated from above, the 5 best binders with a signal in all replicates:

| CDR-H1 | CDR-H2 | CDR-H3 | apparent Kd | replicates with signal | signal with controls |
|---|---|---|---|---|---|
| GFTLNSYGIS | VIYSDGRRCFYGDSFK | GRMAGTFDS | 39 nM | 3 of 3 | 0 of 9 |
| GFTLNSYGIS | VIYSDGRRRFYGDSFK | GRAAGTFDS | 47 nM | 3 of 3 | 0 of 9 |
| GFALNSYGIS | VIYSDGHRTFYGDSYK | GRAAGTFDS | 88 nM | 3 of 3 | 1 of 9 |
| GFTANSYGIS | VIYSDGRRTFYGDKFK | GRAAGTFDS | 480 nM | 3 of 3 | 3 of 9 |
| GFTLRSYGIS | VAYSDGRRTFYGDSDK | GRAAGTFDS | 430 µM | 3 of 3 | 1 of 9 |

For reference, the parent read 4.4 nM as the reference entry and 13 µM (one replicate of three) as a member of this library. As a blank, each scFv also met three strains without target: over library AAYL49, 15% of these pairings were detected, typically at 11 µM and seldom below 680 nM. For each scFv, signals with the empty controls are counted beside the result.

Reference: Engelhart et al. 2022, doi:10.1038/s41597-022-01779-4. File: FLAb, binding data.